Assay: Calculated contrast factors of encapsulated fluids and blood factors
Details: when suspended in blood; calculated from density and bulk modulus

Row | Molecule | calculated contrast factor
1 | OCC(O)CO | +0.73
2 | air | −3.55
